# Measurements as given in patent US20180008569A1, “PROSTAGLANDIN TRANSPORTER INHIBITORS FOR INHIBITING OVULATION” (TEL HASHOMER MEDICAL RESEARCH INFRASTRUCTURE AND SERVICES …, priority 2015, published 2018).
# The chains behind the UniProt entries cited, without tags or fusion partners.
# UniProt Q9EPT5, whole entry: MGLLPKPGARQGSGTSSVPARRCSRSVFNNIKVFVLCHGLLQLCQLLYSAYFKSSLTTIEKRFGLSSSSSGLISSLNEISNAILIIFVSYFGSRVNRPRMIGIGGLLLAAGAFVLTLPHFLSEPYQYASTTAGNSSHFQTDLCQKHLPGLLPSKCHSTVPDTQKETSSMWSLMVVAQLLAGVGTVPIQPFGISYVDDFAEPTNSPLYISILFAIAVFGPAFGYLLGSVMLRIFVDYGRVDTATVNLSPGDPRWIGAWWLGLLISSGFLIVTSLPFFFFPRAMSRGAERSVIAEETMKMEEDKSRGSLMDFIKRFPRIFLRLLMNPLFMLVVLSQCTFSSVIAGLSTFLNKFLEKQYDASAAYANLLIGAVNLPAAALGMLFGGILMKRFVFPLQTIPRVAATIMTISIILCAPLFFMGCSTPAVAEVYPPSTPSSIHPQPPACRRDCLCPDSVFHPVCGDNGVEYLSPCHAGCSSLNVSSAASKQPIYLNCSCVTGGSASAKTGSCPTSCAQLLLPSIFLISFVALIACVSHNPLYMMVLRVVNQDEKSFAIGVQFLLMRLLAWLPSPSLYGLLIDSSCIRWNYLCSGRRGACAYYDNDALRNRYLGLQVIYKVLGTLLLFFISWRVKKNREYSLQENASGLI
# Molecular target: PGT (Mus musculus, UniProt Q9EPT5)
# Experiment: Ovarian morphology (histology) in superovulated mice
# Details: hCG+DIDS, twelve hours after hCG
compound,measurement,value
"O=S(=O)(O)c1cc(N=C=S)ccc1C=Cc1ccc(N=C=S)cc1S(=O)(=O)O [DIDS, 4,4′-Diisothiocyanatostilbene-2,2′-disulfonic acid]",ovarian morphology,unruptured preovulatory follicles replete with intact MGCs and thick multi-layered follicular walls
